Target: T1, P-IGF-1R (Rattus norvegicus, UniProt P24062)
T1 construct: L6hIR cells were seeded in 12-well plates; endogenous in cells; host or cells: L6hIR cells (rat L6 myoblasts)
Experiment: Activation of IGF-1R in L6hIR cells in vitro, sandwich ELISA
Assay type: cell-based
Settings: ligands 0-1000 nM for 30 min, 0.1% human serum albumin, three replicates

Amino acid sequences for entries named in this document (tags omitted). Residues count along the entry.
UniProt P24062, 742-1370 partner limits assumed: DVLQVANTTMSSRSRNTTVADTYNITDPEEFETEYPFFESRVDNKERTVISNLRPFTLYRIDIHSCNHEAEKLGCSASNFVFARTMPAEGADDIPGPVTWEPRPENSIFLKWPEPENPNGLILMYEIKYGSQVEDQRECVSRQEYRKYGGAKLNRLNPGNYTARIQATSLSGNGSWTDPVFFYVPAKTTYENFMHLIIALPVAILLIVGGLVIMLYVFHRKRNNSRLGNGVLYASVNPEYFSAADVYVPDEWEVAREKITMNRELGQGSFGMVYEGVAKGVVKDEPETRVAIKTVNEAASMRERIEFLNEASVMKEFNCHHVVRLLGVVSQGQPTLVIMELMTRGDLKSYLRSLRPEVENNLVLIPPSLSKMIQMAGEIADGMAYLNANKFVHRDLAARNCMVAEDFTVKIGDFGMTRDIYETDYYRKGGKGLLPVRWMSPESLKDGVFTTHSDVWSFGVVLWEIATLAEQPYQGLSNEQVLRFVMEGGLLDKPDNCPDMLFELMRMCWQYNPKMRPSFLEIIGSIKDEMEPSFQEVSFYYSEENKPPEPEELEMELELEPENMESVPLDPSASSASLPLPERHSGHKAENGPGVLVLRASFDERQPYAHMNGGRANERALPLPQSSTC
UniProt P24062, 31-737 limits assumed: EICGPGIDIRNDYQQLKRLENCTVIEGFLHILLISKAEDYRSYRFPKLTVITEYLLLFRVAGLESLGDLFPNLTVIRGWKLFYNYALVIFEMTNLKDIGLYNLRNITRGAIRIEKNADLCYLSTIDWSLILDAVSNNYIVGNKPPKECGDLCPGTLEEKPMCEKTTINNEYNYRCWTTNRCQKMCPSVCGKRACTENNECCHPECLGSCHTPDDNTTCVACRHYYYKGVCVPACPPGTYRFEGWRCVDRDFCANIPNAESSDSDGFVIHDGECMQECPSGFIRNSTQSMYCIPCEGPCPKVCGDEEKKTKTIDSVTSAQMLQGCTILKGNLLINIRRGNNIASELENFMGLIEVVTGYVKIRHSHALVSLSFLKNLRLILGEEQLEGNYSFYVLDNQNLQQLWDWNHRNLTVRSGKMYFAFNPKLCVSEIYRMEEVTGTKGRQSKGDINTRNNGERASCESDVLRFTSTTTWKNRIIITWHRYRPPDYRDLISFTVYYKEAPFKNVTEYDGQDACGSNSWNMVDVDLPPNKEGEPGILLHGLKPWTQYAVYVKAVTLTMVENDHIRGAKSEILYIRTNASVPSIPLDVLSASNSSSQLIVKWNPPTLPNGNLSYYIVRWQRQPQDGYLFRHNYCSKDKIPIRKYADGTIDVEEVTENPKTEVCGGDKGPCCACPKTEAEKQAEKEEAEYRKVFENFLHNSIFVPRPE

human insulin [HI] gave an EC50 of 2140 nM.

Reference: paper PMC7190841 (Scientific Reports, 2020)
